Measurements as given in article PMC3983368 (Journal of Medicinal Chemistry, 2014).

Chains of the proteins cited; added tags and fusions are not shown. Residues count along the entry.
UniProt Q00961, 20-1237: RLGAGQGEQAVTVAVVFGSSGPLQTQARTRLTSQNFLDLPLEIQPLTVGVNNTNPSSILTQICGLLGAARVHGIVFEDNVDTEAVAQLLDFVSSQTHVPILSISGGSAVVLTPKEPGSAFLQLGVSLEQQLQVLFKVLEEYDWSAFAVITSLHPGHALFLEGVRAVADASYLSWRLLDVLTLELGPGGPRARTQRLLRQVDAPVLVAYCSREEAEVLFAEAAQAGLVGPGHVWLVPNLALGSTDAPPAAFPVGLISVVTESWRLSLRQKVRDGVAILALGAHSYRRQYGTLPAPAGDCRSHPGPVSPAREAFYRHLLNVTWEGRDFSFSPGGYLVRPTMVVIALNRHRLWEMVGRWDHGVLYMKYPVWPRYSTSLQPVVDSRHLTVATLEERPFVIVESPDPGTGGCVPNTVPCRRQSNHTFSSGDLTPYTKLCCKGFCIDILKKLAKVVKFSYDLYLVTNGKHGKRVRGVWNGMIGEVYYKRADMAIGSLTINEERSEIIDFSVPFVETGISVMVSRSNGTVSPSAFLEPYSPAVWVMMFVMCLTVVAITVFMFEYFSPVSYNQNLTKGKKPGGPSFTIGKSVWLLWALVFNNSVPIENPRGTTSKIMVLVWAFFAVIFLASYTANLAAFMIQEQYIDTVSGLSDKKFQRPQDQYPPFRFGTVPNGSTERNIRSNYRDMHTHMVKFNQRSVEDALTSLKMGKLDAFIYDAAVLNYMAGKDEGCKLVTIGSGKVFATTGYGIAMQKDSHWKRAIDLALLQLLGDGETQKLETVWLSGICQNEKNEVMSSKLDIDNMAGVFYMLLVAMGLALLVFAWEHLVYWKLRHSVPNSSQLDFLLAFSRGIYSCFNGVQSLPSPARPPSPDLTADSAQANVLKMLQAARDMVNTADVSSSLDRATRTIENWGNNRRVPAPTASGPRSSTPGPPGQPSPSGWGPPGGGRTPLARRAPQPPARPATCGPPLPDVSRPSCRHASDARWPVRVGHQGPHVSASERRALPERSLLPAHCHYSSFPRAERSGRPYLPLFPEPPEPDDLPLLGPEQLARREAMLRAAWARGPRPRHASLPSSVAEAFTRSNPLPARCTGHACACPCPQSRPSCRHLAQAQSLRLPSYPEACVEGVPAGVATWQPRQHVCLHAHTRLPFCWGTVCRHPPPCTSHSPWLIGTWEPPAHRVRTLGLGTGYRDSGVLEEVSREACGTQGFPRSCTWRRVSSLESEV

Biological target: GluN1/GluN2C (Rattus norvegicus, UniProt P35439+Q00961)
Settings: 68 μM compound

Q: For `COC(=O)c1ccc(C2C(C(C)=O)=C(O)C(=O)N2CCc2c[nH]c3ccccc23)cc1` (stereo not shown) [Compound 1, Methyl 4-(1-(2-(1H-Indol-3-yl)ethyl)-3-acetyl-4-hydroxy-5-oxo-2,5-dihydro-1H-pyrrol-2-yl)benzoate], which “effect on the EC50 of glycine or glutamate” value is on record?
A: The value was “did not detectably alter”.
